SMILES strings stand for the structures.

The data set has as its system tobacco cut worm (Spondoptera litura). The data set can be described thus: Lethal effect on tobacco cut worm (Table 5). Format: in vivo. Conditions: tobacco cutworm, larvae on chinese cabbage leaves, 48 h. The protocol:
The present compounds of an emulsifiable concentrate type were applied to leaves of chinese cabbage in the form of an 1000 fold dilute solution. After air-drying, third to fourth instar larvae of tobacco cut worm were released and after 48 hours the death and alive were observed.

As to `CCOP(=S)(Oc1ccc([N+](=O)[O-])cc1)c1ccccc1` (stereo not shown) [EPN, reference compound], the Mortality was determined as 70.0%.

Source of the values: patent publication US4015974A, “Amido phosphorothiolates” (priority 1972, dated 1977).
